Assay results: patent US20180251824A1, “IN VITRO GENOTOXICITY ASSAY USING A TRANSCRIPTOMIC BIOMARKER WITH DIRECT DIGITAL COUNTING” (GEORGETOWN UNIVERSITY, priority 2017, published 2018)

System: TGx-DDI biomarker genes in TK6 cells
Experiment: TGx-DDI transcriptomic biomarker classification by microarray
Type: cell-based, human
Settings: reproducibility check with training-set agents, selected concentration

Substance: oxamflatin
- clustering by 2DC using the TGx-DDI biomarker: clustered with the non-DNA-damaging agents
